The results in this text go back to US20090048155A1 (priority 2007, published 2009).

Some compounds may have been tested in ways that are not shown here.

The nature of this data set: Pharmacokinetics of L-97-1 following i.v. administration. As to conditions: rats. How it is done:
Treatment is initiated at either 12 or 24 hours post-infection. L-97-1 is administered as a continuous i.v. infusion for 8 hours/day for up to 72 hours, depending upon time of sacrifice and necropsy. Based on pharmacokinetic data following i.v. administration, the plasma half life of L-97-1 in rats is 30-60 minutes. L-97-1 will be given as an i.v treatment to obtain adequate plasma levels. Ciprofloxacin is administered b.i.d. by intravenous injection for up to 72 hours, depending upon time of sacrifice and necropsy, as set forth in Table 1.

Take `CCCn1c(=O)c2c(nc(Cc3ccccc3)n2CCN(CC)CCO)n(CCc2ccc(N)cc2)c1=O`: the plasma half life fell in the range of 30 to 60 min.
